From PubChem BioAssay AID624417 (National Center for Advancing Translational Sciences (NCATS), 2012)
This is a selection; strong and weak results do not stand in their true shares. Inconclusive results are not listed. The source made the active and inactive calls. Calls follow the shape of the dose curve; as a rule, active = well fitted inhibition curve with a large enough effect; inconclusive = small, poorly fitted or top-dose-only effect; inactive = no such curve, though single readings can be large or run the other way.

The chains behind the UniProt entries cited, without tags or fusion partners.
UniProt P43220, whole entry: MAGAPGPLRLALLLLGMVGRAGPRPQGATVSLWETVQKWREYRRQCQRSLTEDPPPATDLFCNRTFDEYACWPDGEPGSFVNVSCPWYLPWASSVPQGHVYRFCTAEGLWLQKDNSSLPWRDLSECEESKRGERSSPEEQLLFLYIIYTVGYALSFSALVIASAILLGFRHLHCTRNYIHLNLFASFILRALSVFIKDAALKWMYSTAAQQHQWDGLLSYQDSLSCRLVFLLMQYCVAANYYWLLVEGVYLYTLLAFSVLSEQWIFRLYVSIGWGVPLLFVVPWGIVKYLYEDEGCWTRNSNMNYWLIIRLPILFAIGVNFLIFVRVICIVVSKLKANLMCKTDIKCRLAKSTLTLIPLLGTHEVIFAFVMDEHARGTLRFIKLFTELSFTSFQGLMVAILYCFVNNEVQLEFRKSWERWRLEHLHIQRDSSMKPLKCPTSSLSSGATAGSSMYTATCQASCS

Target: Glucagon-like peptide 1 receptor (Homo sapiens) (UniProt P43220)
Test: qHTS of GLP-1 Receptor Inverse Agonists (Inhibition Mode); also: nearly all actives have a fitted effect of over 55% in size
Settings: HEK293 GLP-1R CRE-luciferase, luminescence, 24 h, GLP-1R form is constitutively active; series mostly up to 38.3 µM; activity change, negative = inhibition: at the top concentration
% is scaled to controls: 0 for no effect and ±100 for the full control effect; potency is read from the fitted curve at half-maximal effect.

Row | SMILES | activity change, negative = inhibition | Potency
1 | O=[N+]([O-])c1cc([N+](=O)[O-])c(Nc2ccccn2)c([N+](=O)[O-])c1 | inactive: 13.6% | –
2 | Cc1c(NP(C)(=O)Oc2ccc(C(C)C)cc2)c(=O)n(-c2ccccc2)n1C (centres undefined) | inactive: -21.5% | –
3 | CP(=O)(Nc1ccccn1)Oc1ccccc1 (centres undefined) | inactive: 13% | –
4 | COc1ccccc1OP(C)(=O)Nc1ccc(C)cc1C (centres undefined) | inactive: -24.3% | –
5 | CCc1ccc(OP(C)(=O)O)cc1 | inactive: 21.3% | –
6 | COc1ccc(OP(C)(=O)Nc2ccccn2)cc1 (centres undefined) | inactive: -0.635% | –
7 | CN(C)CCOC(=O)C(O)(c1ccccc1)C1CCCC1 (centres undefined) | inactive: 0.105% | –
8 | CP(=O)(OCCOc1ccccc1)OCCOc1ccccc1 | inactive: -24.7% | –
9 | COc1ccc(OP(C)(=O)Nc2ccccc2Br)cc1 (centres undefined) | inactive: -5.65% | –
10 | Nc1ccc2c(ccc3cccnc32)n1.O=[N+]([O-])c1cc([N+](=O)[O-])c(O)c([N+](=O)[O-])c1 | inactive: 53.3% | –
11 | CCOC(=O)c1ccc(NP(C)(=O)Oc2ccc(Cl)cc2)cc1 (centres undefined) | inactive: -26.2% | –
12 | CP(=O)(OC12CC3CC(CC(C3)C1)C2)OC12CC3CC(CC(C3)C1)C2 | inactive: 0% | –
13 | CC(C)(C)c1ccc(OP(C)(=O)O)cc1 | inactive: 0% | –
14 | COc1ccccc1OP(C)(=O)Nc1ccccc1Br (centres undefined) | inactive: -25.1% [at 7.66 µM] | –
15 | CP(=O)(Nc1ccc(Cl)cc1)Oc1ccc(F)cc1 (centres undefined) | inactive: -25.5% | –
16 | CN(C)C(=O)c1c([N+](=O)[O-])cc([N+](=O)[O-])cc1[N+](=O)[O-] | inactive: 17.5% | –
17 | COc1ccccc1OP(C)(=O)Nc1c(C)n(C)n(-c2ccccc2)c1=O (centres undefined) | inactive: -9.33% | –
18 | O=C(OCCCN1CCCC1)C(O)(c1ccccc1)C1CCCCC1 (centres undefined) | – | active: 10 µM
19 | CP(=O)(Oc1ccccc1)N1CCOC1=O (centres undefined) | inactive: 17.9% | –
20 | CCc1ccc(OP(C)(=O)Nc2cccnc2)cc1 (centres undefined) | inactive: -2.73% [at 0.307 µM] | –
21 | CP(=O)(Nc1ccc2c(c1)OCCO2)Oc1ccccc1 (centres undefined) | inactive: -6.96% | –
22 | Cc1ccccc1NP(C)(=O)Nc1ccccc1C | inactive: -18.7% | –
23 | O=[N+]([O-])c1cc([N+](=O)[O-])c(C(F)(F)F)c([N+](=O)[O-])c1O | inactive: -25.7% | –
24 | CP(=O)(Nc1ccc(SC(F)(F)F)cc1)Oc1ccc(F)cc1 (centres undefined) | – | active: 10 µM
25 | CCOP(C)(=S)SCC(=O)NC(C)(CC)C(=O)O (centres undefined) | inactive: 2.44% | –
26 | O=[N+]([O-])c1ccc(OP2(=O)COCCO2)cc1 (centres undefined) | inactive: -14.8% | –
27 | Cc1c(C(c2ccc3c(c2)OCO3)c2c(C)n(C)n(-c3ccccc3)c2=O)c(=O)n(-c2ccccc2)n1C.O=[N+]([O-])c1cc([N+](=O)[O-])c(O)c([N+](=O)[O-])c1 | inactive: 8.34% | –
28 | COc1ccc(OP(C)(=O)Nc2cccc(Br)c2)cc1 (centres undefined) | inactive: -9.17% | –
29 | COc1ccc(NP(C)(=O)Oc2ccccc2OC)cc1 (centres undefined) | inactive: -7.28% | –
